Here are results for 1 compound from PubChem BioAssay AID2107 (National Center for Advancing Translational Sciences (NCATS), 2009).

By UniProt entry, the sequences of proteins in these tests, tags left out. Residues count along the entry.
UniProt P06280, 32-429 limits assumed: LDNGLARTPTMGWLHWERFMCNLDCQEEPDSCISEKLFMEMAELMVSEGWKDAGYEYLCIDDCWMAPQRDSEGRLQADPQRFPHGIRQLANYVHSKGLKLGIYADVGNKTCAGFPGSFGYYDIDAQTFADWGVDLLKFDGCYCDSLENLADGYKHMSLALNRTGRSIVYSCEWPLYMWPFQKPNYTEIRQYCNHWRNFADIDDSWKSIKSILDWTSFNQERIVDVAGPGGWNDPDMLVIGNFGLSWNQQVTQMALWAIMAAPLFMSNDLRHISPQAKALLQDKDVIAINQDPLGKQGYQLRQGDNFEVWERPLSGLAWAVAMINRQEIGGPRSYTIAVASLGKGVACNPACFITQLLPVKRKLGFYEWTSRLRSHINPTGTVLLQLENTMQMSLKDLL

This is a selection; strong and weak results do not stand in their true shares. Activity calls are given as the source filed them. Calls follow the shape of the dose curve; as a rule, active = well fitted inhibition curve with a large enough effect; inconclusive = small, poorly fitted or top-dose-only effect, or effect the other way; inactive = flat fitted curve, though single readings scatter.

The target of the experiment is Alpha-galactosidase A (Homo sapiens) (UniProt P06280). Nature of the experiment: qHTS Assay for Inhibitors and Activators of Human alpha-Galactosidase From Spleen Homogenate.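 Also: 0% = enzyme with vehicle and -100% = no enzyme basal signal.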 The following applies: 4MU-alpha-Gal fluorescence, 40 min; at 80 µM (top of the series). From the text: NIH Chemical Genomics Center [NCGC] NIH Molecular Libraries Probe Production Centers Network [MLPCN] MLPCN Grant: R03 MH084842-01 Assay Submitter (PI): Wei Zheng NCGC Assay Overview: Alpha-galactosidase is a homodimeric glycoprotein that hydrolyzes the terminal alpha-galactosyl moieties from glycolipids and glycoproteins. Deficiency of this enzyme results in Fabry Disease with progressive accumulation of globotriaosylceramide and other glycosphingolipids in vascular endothelial cells that causes renal failure, myocardial infarction and stroke, and premature death in patients. […]
NCGC Assay Protocol Summary: This is a fluorogenic enzyme assay with 4-methylumbelliferyl-alpha-D-galactopyranoside as the substrate and human spleen homogenate containing alpha-galactosidase as the enzyme preparation. Upon hydrolysis of this fluorogenic substrate, the resulting product, 4-methylumbelliferone (which excites at 365 nm and emits at 440 nm) can be detected by a fluorescence plate reader. […] The AC50 values were determined from concentration-response data modeled with the standard Hill equation. […] (3) Add 2 ul of substrate (1 mM final) (4) Incubate at 37C for 40 min (5) Add 2 ul stop solution (1M NaOH and 1M Glycine mixture, pH 10) (6) Detect the assay plate in a ViewLux plate reader (PerkinElmer) with Ex=365 nm and Em=440nm. […]
Turning to `CP(=O)(Nc1ccccn1)Oc1ccccc1` (stereo unspecified), the activity change, negative = inhibition is inactive: -3.45%.
